Test results reported in IntAct's records for PubMed 21320496.

B1: Tyrosine-protein kinase ABL1 (Mus musculus), P00520-4 (parent)
chain: MGQQPGKVLGDQRRPSLPALHFIKGAGKRDSSRHGGPHCNVFVEHEALQRPVASDFEPQGLSEAARWNSKENLLAGPSENDPNLFVALYDFVASGDNTLSITKGEKLRVLGYNHNGEWCEAQTKNGQGWVPSNYITPVNSLEKHSWYHGPVSRNAAEYLLSSGINGSFLVRESESSPGQRSISLRYEGRVYHYRINTASDGKLYVSSESRFNTLAELVHHHSTVADGLITTLHYPAPKRNKPTIYGVSPNYDKWEMERTDITMKHKLGGGQYGEVYEGVWKKYSLTVAVKTLKEDTMEVEEFLKEAAVMKEIKHPNLVQLLGVCTREPPFYIITEFMTYGNLLDYLRECNRQEVSAVVLLYMATQISSAMEYLEKKNFIHRDLAARNCLVGENHLVKVADFGLSRLMTGDTYTAHAGAKFPIKWTAPESLAYNKFSIKSDVWAFGVLLWEIATYGMSPYPGIDLSQVYELLEKDYRMERPEGCPEKVYELMRACWQWNPSDRPSFAEIHQAFETMFQESSISDEVEKELGKRGTRGGAGSMLQAPELPTKTRTCRRAAEQKDAPDTPELLHTKGLGESDALDSEPAVSPLLPRKERGPPDGSLNEDERLLPRDRKTNLFSALIKKKKKMAPTPPKRSSSFREMDGQPDRRGASEDDSRELCNGPPALTSDAAEPTKSPKASNGAGVPNGAFREPGNSGFRSPHMWKKSSTLTGSRLAAAEEESGMSSSKRFLRSCSASCMPHGARDTEWRSVTLPRDLPSAGKQFDSSTFGGHKSEKPALPRKRTSESRSEQVAKSTAMPPPRLVKKNEEAAEEGFKDTESSPGSSPPSLTPKLLRRQVTASPSSGLSHKEEATKGSASGMGTPATAEPAPPSNKVGLSKASSEEMRVRRHKHSSESPGRDKGRLAKLKPAPPPPPACTGKAGKPAQSPSQEAGEAGGPTKTKCTSLAMDAVNTDPTKAGPPGEGLRKPVPPSVPKPQSTAKPPGTPTSPVSTPSTAPAPSPLAGDQQPSSAAFIPLISTRVSLRKTRQPPERIASGTITKGVVLDSTEALCLAISRNSEQMASHSAVLEAGKNLYTFCVSYVDSIQQMRNKFAFREAINKLESNLRELQICPATASSGPAATQDFSKLLSSVKEISDIVRR

Variants of: B1
Settings: with q8izp0-4 ABI1, Q8IZP0-4
For K290M, the “effect of a mutation on the interaction” value was “disrupting interaction”.

Variants of: B1
Settings: with q8izp0-4 ABI1, Q8IZP0-4
Remark: another data set of the same source
For P548A, the “effect of a mutation on the interaction” value was “decreasing interaction”.
In the case of P592A, the “effect of a mutation on the interaction” value is reported as “decreasing interaction”.
In the case of P634A, the “effect of a mutation on the interaction” value is reported as “decreasing interaction”.
P781A was tested, and the “effect of a mutation on the interaction” value was “decreasing interaction”.
